These results are taken from ChEMBL document CHEMBL5653606 (J Pharmacol Exp Ther, 2011).

The chains behind the UniProt entries cited, without tags or fusion partners.
UniProt P97612, whole entry: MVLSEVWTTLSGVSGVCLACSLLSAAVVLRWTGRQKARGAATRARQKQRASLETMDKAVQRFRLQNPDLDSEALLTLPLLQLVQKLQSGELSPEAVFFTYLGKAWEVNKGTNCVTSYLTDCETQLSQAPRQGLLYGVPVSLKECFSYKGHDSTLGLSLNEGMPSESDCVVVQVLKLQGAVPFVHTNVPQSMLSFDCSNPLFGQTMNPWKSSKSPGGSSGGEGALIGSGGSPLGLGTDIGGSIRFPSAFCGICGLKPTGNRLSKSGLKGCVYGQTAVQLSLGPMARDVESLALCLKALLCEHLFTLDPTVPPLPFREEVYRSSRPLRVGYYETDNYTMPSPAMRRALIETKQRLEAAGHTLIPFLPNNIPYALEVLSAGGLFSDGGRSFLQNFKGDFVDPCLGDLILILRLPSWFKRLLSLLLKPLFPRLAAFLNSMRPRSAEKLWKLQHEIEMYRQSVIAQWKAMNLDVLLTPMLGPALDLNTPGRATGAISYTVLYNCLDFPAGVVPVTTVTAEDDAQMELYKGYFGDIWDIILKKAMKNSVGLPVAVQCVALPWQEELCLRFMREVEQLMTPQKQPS

Common to all, as to type: functional, organism-based
Test [1] addresses Fatty-acid amide hydrolase 1 (Rattus norvegicus) (UniProt P97612). The experiment in a line: In vivo inhibition of FAAH in CFA induced Sprague-Dawley rat brain assessed as elevation of AEA level at 0.1 to 10 mg/kg, po using 3H-labeled AEA as substrate. To be noted: dose 0.1-10 mg/kg.
Test [2] shares this target. The experiment in a line: In vivo inhibition of FAAH in CFA induced Sprague-Dawley rat plasma assessed as elevation of AEA level at 0.1 to 10 mg/kg, po using 3H-labeled AEA as substrate. To be noted: dose 0.1-10 mg/kg.
For test [3] the target is unchanged. The experiment in a line: In vivo inhibition of FAAH in CFA induced Sprague-Dawley rat brain assessed as elevation of OEA level at 0.1 to 10 mg/kg, po. To be noted: dose 0.1-10 mg/kg.
Test [4] shares this target. Kind of test: In vivo inhibition of FAAH in CFA induced Sprague-Dawley rat brain assessed as elevation of PEA level at 0.1 to 10 mg/kg, po. To be noted: dose 0.1-10 mg/kg.
Test [5] shares this target. The experiment in a line: In vivo inhibition of FAAH in CFA induced Sprague-Dawley rat brain assessed as elevation of AEA level at 1 mg/kg, po using 3H-labeled AEA as substrate measured for 1 to 24 hrs. To be noted: time 1-24 hrs.
Test [6] has the same target. Kind of test: In vivo inhibition of FAAH in CFA induced Sprague-Dawley rat plasma assessed as elevation of AEA level at 1 mg/kg, po using 3H-labeled AEA as substrate measured for 1 to 24 hrs. To be noted: time 1-24 hrs.
Test [7] has the same target. The experiment in a line: In vivo inhibition of FAAH in CFA induced Sprague-Dawley rat brain assessed as elevation of PEA level at 1 mg/kg, po measured for 1 to 24 hrs. To be noted: time 1-24 hrs.
For test [8] the target is unchanged. The experiment in a line: In vivo inhibition of FAAH in CFA induced Sprague-Dawley rat brain assessed as elevation of OEA level at 1 mg/kg, po measured for 1 to 24 hrs. To be noted: time 1-24 hrs.

With `O=C(Nc1cccnn1)N1CCC(=Cc2cccc(Oc3ccc(C(F)(F)F)cn3)c2)CC1`, the fold change (FC) in test [1] was found to be 5; in test [2], 3; in test [3] it was 8; in test [4], 8; in test [5], 5; in test [6], 3. Moreover, the fold change (FC) in test [7] and in test [8] was 8 throughout.
